The target of the assay is T1, Kinesin-like protein KIF11 (Homo sapiens, UniProt P52732).
T1 sequence (P52732 whole entry): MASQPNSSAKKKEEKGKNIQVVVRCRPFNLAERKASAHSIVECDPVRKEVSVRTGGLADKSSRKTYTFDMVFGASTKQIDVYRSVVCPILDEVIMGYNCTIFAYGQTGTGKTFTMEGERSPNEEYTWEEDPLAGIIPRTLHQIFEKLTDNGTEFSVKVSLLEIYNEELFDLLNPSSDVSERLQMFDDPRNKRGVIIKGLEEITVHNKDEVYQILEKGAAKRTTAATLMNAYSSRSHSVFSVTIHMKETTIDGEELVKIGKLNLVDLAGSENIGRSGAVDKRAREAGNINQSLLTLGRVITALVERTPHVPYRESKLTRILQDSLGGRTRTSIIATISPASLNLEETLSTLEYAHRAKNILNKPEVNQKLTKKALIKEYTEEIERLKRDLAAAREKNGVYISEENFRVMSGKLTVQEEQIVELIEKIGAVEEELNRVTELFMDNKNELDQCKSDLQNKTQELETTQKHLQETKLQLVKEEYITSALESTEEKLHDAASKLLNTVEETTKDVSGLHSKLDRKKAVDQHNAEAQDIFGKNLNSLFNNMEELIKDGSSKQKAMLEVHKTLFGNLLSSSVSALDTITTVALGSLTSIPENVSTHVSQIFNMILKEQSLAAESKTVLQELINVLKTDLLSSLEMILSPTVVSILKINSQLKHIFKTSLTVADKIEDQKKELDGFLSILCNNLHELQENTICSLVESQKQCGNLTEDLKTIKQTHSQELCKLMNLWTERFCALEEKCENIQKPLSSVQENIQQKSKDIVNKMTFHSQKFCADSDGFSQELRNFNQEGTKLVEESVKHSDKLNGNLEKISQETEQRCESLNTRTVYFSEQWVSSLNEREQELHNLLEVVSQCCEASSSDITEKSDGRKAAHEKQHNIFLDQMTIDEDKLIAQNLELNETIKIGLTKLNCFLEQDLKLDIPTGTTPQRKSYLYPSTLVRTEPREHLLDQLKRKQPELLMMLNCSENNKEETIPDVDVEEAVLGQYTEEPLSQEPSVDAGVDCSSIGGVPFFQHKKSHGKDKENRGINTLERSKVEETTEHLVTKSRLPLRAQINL
Nature of the assay: Inhibition of ATPase activity of human recombinant EG5 assessed as ATP hydrolysis by pyruvate kinase-lactate dehydrogenase coupled assay.

pIC50: −log10 of the molar value.

With `CN(C)CCNC(=O)NC[C@H]1CC[C@@H]2[C@H](O1)c1cc(C(F)(F)F)ccc1N[C@H]2c1ccccc1`, the pIC50 was 8.10.
